Data: PubChem BioAssay AID493056 (National Center for Advancing Translational Sciences (NCATS), 2011)
This is a selection; strong and weak results do not stand in their true shares. Activity calls are given as the source filed them. No stated cut-off is given here; in the data, active means enhancement above about 30%; inactive means the rest.

Sequences of proteins named here, by UniProt entry; tags and fusion partners are left off.
UniProt P34981, whole entry: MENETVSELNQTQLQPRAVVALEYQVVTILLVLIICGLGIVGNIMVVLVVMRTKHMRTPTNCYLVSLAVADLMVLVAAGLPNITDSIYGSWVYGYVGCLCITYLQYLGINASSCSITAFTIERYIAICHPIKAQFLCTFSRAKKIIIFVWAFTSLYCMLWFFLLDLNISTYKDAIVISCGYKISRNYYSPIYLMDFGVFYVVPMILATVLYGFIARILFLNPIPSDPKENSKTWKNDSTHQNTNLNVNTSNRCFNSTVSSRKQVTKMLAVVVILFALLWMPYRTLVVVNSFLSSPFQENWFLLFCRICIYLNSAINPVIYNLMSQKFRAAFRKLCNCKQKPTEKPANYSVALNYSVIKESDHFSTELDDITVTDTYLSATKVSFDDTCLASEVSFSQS

target: Thyrotropin-releasing hormone receptor (Homo sapiens) (UniProt P34981); experiment: qHTS for Small Molecule Agonists and Allosteric Enhancers of Human TRH Receptor: Primary Screen for Enhancers; conditions: TRHR cells, fluo-8 calcium fluorescence, EC20 TRH enhancement; at 2 µM; stronger effect = higher value; further: 0% is about no effect
From the text: NIH Chemical Genomics Center [NCGC] NIH Molecular Libraries Probe Centers Network [MLPCN] MLPCN Grant: MH089816-01 Assay Submitter (PI): Marvin Gershengorn This project aims to identify small drug-like molecules that activate (agonists) the thyrotropin releasing hormone (TRH) receptor (TRHR) or enhance its TRH-stimulated activity (allosteric enhancers). TRHR, a drug-accessible cell surface receptor expressed in specific brain regions, and its ligand TRH have been implicated in several central nervous system disorders, including depression and anxiety. Small molecule TRHR agonists or allosteric enhancers that are metabolically stable and able to cross the blood-brain barrier might serve as probes to elucidate the roles of brain TRH receptors in animal models, and might be valuable as lead compounds for the development of drugs to treat patients with central nervous system disorders. Upon TRHR-Gq activation in TRHR cells, intracellular calcium is released from stores in the endoplasmic reticulum. […] This primary screen measures compound-induced enhancement of an EC20 stimulation of the receptor by its native ligand.
For the HTS assay freshly prepared cells are plated at a density of 2000/well in 3 ul of complete DMEM medium containing 10% serum in 1536-well plates and cultured over night at 37 C in a humidified incubator with 5% CO2. The next day, 2 ul of a no wash calcium dye (ABD Bioquest) was added to the cells and plates were incubated at room temperature for 1 hour. For the assay, assay plates were loaded into the FDSS kinetic plate reader. A 10 cycle (1 second/cycle) baseline measurement is taken and then the FDSS online 1536 pintool delivers 23 nl of compound library (as well as TRH controls) to the plate. The plate is measured for kinetically at 1 cycle/sec for 180 seconds and is considered to be the agonist portion of the assay (eg, compounds which activate a positive calcium response during this portion are flagged as potential agonists). Following the 180 second read, 1 ul of either an EC20 (positive modulation assay) is delivered by an onboard pipette head. Measurements are taken kinetically for an additional 180 seconds. TRHR FDSS Screening Protocol 1. Reagent, 3 uL 2000 cells/well 1536 TC treated Black plate in media containing 10% FCS 2. Time, 18 hours, 33.5C 5% CO2 (cells grown at 37C) 3. Reagent, 2 uL ABD fluo-8 Ca dye 4. Time, 30 min-1.5hrs hours, Room temp (6 plates/batch) 5. Detector, EX 480/EM 530C, FDSS 10 cycles baseline (1sec/cycle) 6. Compound, 23 nL of stock solution from library 7. Detector, EX 480/EM 530C, FDSS 230 cycles (1sec/cycle) Agonist mode 8. Compound, 1 ul EC20 of TRH made up in HEPES HBSS, 10 nM final 9. Detector, EX 480/EM 530C, FDSS 100 cycles (1sec/cycle) Potentiator mode

SMILES | enhancement
CCc1cc(C(=O)NCC2(N3CCCCC3)CCCCC2)sc1C | inactive: -19.7%
O=C(OC1CN2CCC1CC2)C1c2ccccc2C=Cc2ccccc21 (stereo not drawn) | inactive: -4.67%
O=C(O)c1cccc(Nc2c([N+](=O)[O-])cc([N+](=O)[O-])cc2[N+](=O)[O-])c1 | inactive: -2.85%
CCOC(=O)N1CCC(Nc2ccc(C)cc2)CC1 | inactive: 1.47%
N/C(=N\O)c1c(N)no[n+]1[O-] | inactive: -16.5%
COc1ccc(C(=O)NCC2(N3CCOCC3)CCCCC2)cc1OC | inactive: -8.62%
O=C(NCC1(N2CCOCC2)CCCCC1)c1cc(Br)ccc1Cl | inactive: 2.76%
CN(C)C1(CNC(=O)c2cccc(C#N)c2)CCCCC1 | inactive: 0.59%
c1ccc(CN2CCC(Nc3ccccc3)CC2)cc1 | inactive: 1.39%
CCCN1CCC(Nc2cc(OC)cc(OC)c2)CC1 | inactive: 1.71%
O=C(NCC1(N2CCOCC2)CCCCC1)c1ccccc1 | inactive: -2%
CCOC(=O)C(CC)C1=NC(C)(C)Cc2ccccc21.O=[N+]([O-])c1cc([N+](=O)[O-])c(O)c([N+](=O)[O-])c1 (stereo not drawn) | inactive: -3.02%
O=C(NCC1(N2CCOCC2)CCCCC1)c1ccccc1[N+](=O)[O-] | inactive: -7.32%
N#Cc1ccc(C(=O)NCC2(N3CCCCC3)CCCCC2)cc1 | inactive: -5.81%
O=C(NCC1(N2CCOCC2)CCCCC1)c1ccc([N+](=O)[O-])cc1 | inactive: 0.469%
CC(C)(C)OC(=O)N1CCC(N(C(=O)c2ccccc2)c2ccc(Cl)cc2)CC1 | inactive: -4.76%
Cc1ccccc1C(=O)NCC1(N(C)C)CCCCC1 | inactive: 1.39%
O=C(NCC1(N2CCCCC2)CCCCC1)c1ccco1 | inactive: 7.77%
CC(C)(C)c1ccc(C(=O)NCC2(N3CCOCC3)CCCCC2)cc1 | inactive: 12.8%
CN(C)c1ccc(C(=O)NCC2(N3CCCCC3)CCCCC2)cc1 | inactive: 14.9%
CCN1CCC(Nc2cccc(F)c2)CC1 | inactive: -0.538%
Cc1ccc(C(=O)NCC2(N3CCCCC3)CCCCC2)o1 | inactive: 5.27%
Fc1ccccc1NC1CCN(Cc2ccccc2)CC1 | inactive: 3.26%
CN(C)C1(CNC(=O)c2ccc(C(C)(C)C)cc2)CCCCC1 | inactive: -2.5%
COc1cc(OC)cc(C(=O)NCC2(N3CCCCC3)CCCCC2)c1 | inactive: 5.11%
CN1CCC(Nc2ccc(Cl)cc2)CC1 | inactive: 12.3%
CCCOc1ccc(C)cc1CN(CCCl)CCCl | inactive: -3.83%
COc1cccc(C(=O)N(c2cc(C)cc(C)c2)C2CCN(C(=O)OC(C)(C)C)CC2)c1 | inactive: -4.38%
